Measured values: patent US6875748B2, “Compositions and methods for in vivo delivery of polynucleotide-based therapeutics” (Vical Incorporated, priority 2000, dated 2005)

System: mouse quadriceps muscle
Assay: Luciferase expression in mouse quadriceps muscle after injection of VR1255 in 150 mM sodium and potassium salt solutions
Type: in vivo
Conditions: VR1255, day 7

| Structure (SMILES) | luciferase expression compared with saline or potassium chloride |
| --- | --- |
| O=P([O-])([O-])OCC(O)CO.[Na+].[Na+] (racemic) [disodium glycerophosphate, disodium DL-α-glycero-phosphate] | showing a significant increase |
| O=C[C@H](O)[C@@H](O)[C@H](O)[C@H](O)COP(=O)([O-])[O-].[Na+].[Na+] [glucose-6-phosphate, disodium glucose-6-phosphate] | increased luciferase expression |
